Legend:
Format in all cases: in vivo
larval zebrafish [1] = test: Larval zebrafish heart rate and arrhythmia; conditions: immobilized 7 dpf larvae, 50 μM
larval zebrafish [2] = test: Larval zebrafish behavioral profiling; conditions: 1–200 μM, 7 dpf, battery of light and acoustic stimuli
[3] = test system: larval zebrafish expressing GCaMP5; test: Larval zebrafish seizure experiments; conditions: IBO and TBG 50 μM, PTZ 15 mM, 1 h
larval zebrafish [4] = test: Larval zebrafish developmental toxicity; conditions: 100 μM, 2 and 5 dpf

With ibogaine the “heart rate (bradycardia)” value (larval zebrafish [1]) was “decreased heart rate”, the “behavioral profile versus vehicle and lethal (eugenol) controls” value (larval zebrafish [2]) was “produced behavioral profiles similar to the lethal control” and the “seizurogenic potential (neural activity, GCaMP5 fluorescence)” value [3] was “Neither ibogaine nor TBG produced excessive neural activity”. For the same substance, the malformation and mortality (larval zebrafish [4]) was “significantly increased malformations and mortality”.

— article PMC7874389 (Nature, 2020)
